From article PMC8234359, “Pharmacokinetics in Zebrafish Embryos (ZFE) Following Immersion and Intrayolk Administration: A Fluorescence-Based Analysis” (Pharmaceuticals, 2021)

Test: Intrayolk (IY) microinjection of two-cell stage zebrafish embryos (2 mg/kg), spatiotemporal fluorescence imaging and non-compartmental AUC
Format: in vivo, zebrafish (Danio rerio)
Excerpt: Intrayolk microinjection (IY): zebrafish embryos at the two-cell stage were positioned in a Petri dish at room temperature. […] Needles were filled with compounds dissolved in the vehicle (DMSO/saline (1:1)), placed under the microscope, and using forceps, the tip was cut off in a manner to allow for a consistent volume to be injected. Afterwards, the embryos were transferred to 6-well plates. Control embryos were exposed to vehicle only. […] Previous to fluorescence imaging, the embryos were dechorionated (up to 72 hpf) and immobilized by hypothermia, rinsed three times with Danieau's medium, and positioned latero-lateral (right lateral recumbency) on a single cavity glass slide and covered by a drop of agarose (0.1%). Then, using MetaMorph (Microscopy Automation and Image Analysis Software V.7.8.00, Molecular Devices, LLC., San Jose, CA, USA) and by manual delineation of the whole-body (WB) (up to 120 h) and yolk sac contours (up to 72 h) of the zebrafish embryos the fluorescence in the selected area was quantified as integrated fluorescence intensity (RFU). The RFU values of the non-yolk compartment (i.e., RoB: rest of body) was assessed by subtracting the yolk results from the corresponding integrated fluorescence intensities found in the WB. […] The area under a plot of the fluorescence intensity (RFUT) versus time is referred to as the area under the (zero moment) curve AUC. […]

accumulation in the gastrointestinal system (IY microinjection 2 mg/kg, after 96 hpf): accumulation
RD (IY), Relative Distribution (ratio of AUCRoB to AUCWB after microinjection into the yolk (2 mg/kg), 0.25–72 h): 0.26
Substance: Rhodamine 6g 6-Isomer [Compound R6GA]
